US4180506A, “6β-Bromo penicillanic acid” (priority 1978, dated 1979)

System: Vibrio percolans MB-1272
Experiment: Bilayer agar diffusion test, potentiation of Pen G in the presence of penicillinase
Assay type: cell-based

Question: `CC1(C)S[C@@H]2C(Br)C(=O)N2[C@H]1C(=O)O` (stereo partly drawn) was tested. Which “Zone of inhibition, Antibiotic Alone” value (0.125 μg/ml) did it give?
Answer: Its value is 0 mm.

Question: What about the “Zone of inhibition, Antibiotic + Penase” value (0.125 μg/ml, Penase 10^4 units/ml) of the same compound?
Answer: Its value is 0 mm.

Question: And the “Zone of inhibition, Antibiotic + Penase + Pen G” value (0.125 μg/ml, Penase 10^4 units/ml, Pen G 5 μg/ml)?
Answer: The value was 0 mm.

Question: And the “Zone of inhibition, Antibiotic Alone” value (0.25 μg/ml)?
Answer: The value was 0 mm.

Question: What about the “Zone of inhibition, Antibiotic + Penase” value (0.25 μg/ml, Penase 10^4 units/ml) of the same compound?
Answer: The value was 0 mm.

Question: What about the “Zone of inhibition, Antibiotic + Penase + Pen G” value (0.25 μg/ml, Penase 10^4 units/ml, Pen G 5 μg/ml) of the same compound?
Answer: The value was 15 mm.

Question: What about the “Zone of inhibition, Antibiotic Alone” value (0.5 μg/ml) of the same compound?
Answer: Its value is 0 mm.

Question: And the “Zone of inhibition, Antibiotic + Penase” value (0.5 μg/ml, Penase 10^4 units/ml)?
Answer: Its value is 0 mm.

Question: And the “Zone of inhibition, Antibiotic + Penase + Pen G” value (0.5 μg/ml, Penase 10^4 units/ml, Pen G 5 μg/ml)?
Answer: The value was 23 mm.

Question: And the “Zone of inhibition, Antibiotic Alone” value (1 μg/ml)?
Answer: The value was 0 mm.

Question: And the “Zone of inhibition, Antibiotic + Penase” value (1 μg/ml, Penase 10^4 units/ml)?
Answer: The value was 0 mm.

Question: What about the “Zone of inhibition, Antibiotic + Penase + Pen G” value (1 μg/ml, Penase 10^4 units/ml, Pen G 5 μg/ml) of the same compound?
Answer: Its value is 26 mm.

Question: And the “Zone of inhibition, Antibiotic Alone” value (2 μg/ml)?
Answer: Its value is 0 mm.

Question: What about the “Zone of inhibition, Antibiotic + Penase” value (2 μg/ml, Penase 10^4 units/ml) of the same compound?
Answer: The value was 0 mm.

Question: What about the “Zone of inhibition, Antibiotic + Penase + Pen G” value (2 μg/ml, Penase 10^4 units/ml, Pen G 5 μg/ml) of the same compound?
Answer: The value was 31 mm.

Question: And the “Zone of inhibition, Antibiotic Alone” value (4 μg/ml)?
Answer: The value was 0 mm.

Question: What about the “Zone of inhibition, Antibiotic + Penase” value (4 μg/ml, Penase 10^4 units/ml) of the same compound?
Answer: Its value is 0 mm.

Question: And the “Zone of inhibition, Antibiotic + Penase + Pen G” value (4 μg/ml, Penase 10^4 units/ml, Pen G 5 μg/ml)?
Answer: Its value is 37 mm.

Question: What about the “Zone of inhibition, Antibiotic Alone” value (8 μg/ml) of the same compound?
Answer: Its value is 0 mm.

Question: And the “Zone of inhibition, Antibiotic + Penase” value (8 μg/ml, Penase 10^4 units/ml)?
Answer: Its value is 0 mm.

Question: What about the “Zone of inhibition, Antibiotic Alone” value (16 μg/ml) of the same compound?
Answer: Its value is 12 mm.

Question: And the “Zone of inhibition, Antibiotic + Penase” value (16 μg/ml, Penase 10^4 units/ml)?
Answer: The value was 11 mm.

Question: And the “Zone of inhibition, Antibiotic Alone” value (31 μg/ml)?
Answer: Its value is 23 mm.

Question: What about the “Zone of inhibition, Antibiotic + Penase” value (31 μg/ml, Penase 10^4 units/ml) of the same compound?
Answer: Its value is 24 mm.

Question: What about the “Concentration required to produce a zone of inhibition in the presence of Pen G and Penase” value (Pen G 5 μg/ml, Penase 10^4 units/ml) of the same compound?
Answer: The value was 0.25 µg/mL.

Question: And the “Potentiation of benzylpenicillin (Pen G) activity” value (subinhibitory concentrations, penicillinase 10^4 units/ml)?
Answer: The value was “markedly potentiated”.

Question: What about the “Synergistic effect greater than clavulanic acid control, weight basis” value (vs clavulanic acid, with Pen G and penicillinase 10^4 units/ml) of the same compound?
Answer: The value was “approximately 64 fold”.
